Test results: patent publication US7973034B2, “Amide, aryl sulfonamide, aryl urea, and α,β-diketone derived carboxylesterase inhibitors, and their methods of use” (priority 2003, dated 2011)

Columns and labels:
[1] = target: T1, human liver carboxylesterase (hCE1) (Homo sapiens, UniProt P23141); assay: biochemical
T1 sequence (P23141 18-567): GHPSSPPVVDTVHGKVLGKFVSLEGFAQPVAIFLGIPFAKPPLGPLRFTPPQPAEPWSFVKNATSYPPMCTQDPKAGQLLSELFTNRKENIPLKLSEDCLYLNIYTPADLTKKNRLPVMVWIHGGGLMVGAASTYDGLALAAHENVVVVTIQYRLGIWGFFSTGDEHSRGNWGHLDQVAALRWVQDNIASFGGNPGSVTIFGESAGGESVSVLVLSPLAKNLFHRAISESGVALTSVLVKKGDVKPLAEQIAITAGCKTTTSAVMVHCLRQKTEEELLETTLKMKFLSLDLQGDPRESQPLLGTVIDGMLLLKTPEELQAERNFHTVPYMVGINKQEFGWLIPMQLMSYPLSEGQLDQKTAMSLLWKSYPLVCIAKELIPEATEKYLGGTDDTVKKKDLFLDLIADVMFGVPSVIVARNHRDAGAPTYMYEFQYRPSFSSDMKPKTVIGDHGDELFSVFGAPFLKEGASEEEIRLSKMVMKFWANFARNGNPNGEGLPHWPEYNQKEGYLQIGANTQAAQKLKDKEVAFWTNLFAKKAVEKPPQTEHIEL

[2] = target: T2, rabbit liver carboxylesterase (rCE) (Oryctolagus cuniculus, UniProt P12337); assay: biochemical
T2 sequence (P12337 19-565): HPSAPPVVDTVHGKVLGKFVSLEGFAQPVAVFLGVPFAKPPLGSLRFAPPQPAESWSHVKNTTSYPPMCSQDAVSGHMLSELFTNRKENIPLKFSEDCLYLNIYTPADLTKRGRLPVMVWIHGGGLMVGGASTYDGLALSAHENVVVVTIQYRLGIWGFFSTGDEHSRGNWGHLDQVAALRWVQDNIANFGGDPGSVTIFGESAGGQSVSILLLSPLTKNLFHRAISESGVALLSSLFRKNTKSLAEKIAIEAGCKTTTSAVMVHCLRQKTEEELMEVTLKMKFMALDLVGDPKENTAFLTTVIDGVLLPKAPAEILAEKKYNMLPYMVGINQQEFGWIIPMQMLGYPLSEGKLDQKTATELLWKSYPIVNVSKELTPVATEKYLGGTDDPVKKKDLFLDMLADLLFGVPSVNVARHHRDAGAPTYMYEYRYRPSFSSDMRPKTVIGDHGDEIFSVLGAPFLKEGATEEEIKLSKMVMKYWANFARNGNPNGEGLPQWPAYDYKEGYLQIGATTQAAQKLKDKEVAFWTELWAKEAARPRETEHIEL

| Structure (SMILES) | Ki [1] | Ki [2] |
| --- | --- | --- |
| O=C(C(=O)c1ccc(O)c([N+](=O)[O-])c1)c1ccc(O)c([N+](=O)[O-])c1 [Compound 36, 1,2-bis(4-hydroxy-3-nitrophenyl)ethane-1,2-dione] | > 100 µM |  |
| COc1ccc(C(=O)C(=O)c2ccc(OC)c([N+](=O)[O-])c2)cc1[N+](=O)[O-] [Compound 37, 1,2-bis(4-methoxy-3-nitrophenyl)ethane-1,2-dione] |  | > 100 µM |
